According to PubChem BioAssay AID449768 (Vanderbilt High Throughput Screening Facility, 2010):
This is a selection; strong and weak results do not stand in their true shares. Some of these compounds have results that are not shown, active ones among them. Activity calls are given as the source filed them.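 Rule for the calls: active = Z score or B-score, a plate-position-corrected score, falls beyond the plate's 99.7% confidence bounds, in either direction; inactive = both scores lie inside the 99.7% bounds.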

Sequences of proteins named here, by UniProt entry; tags and fusion partners are left off.
UniProt Q01959, whole entry: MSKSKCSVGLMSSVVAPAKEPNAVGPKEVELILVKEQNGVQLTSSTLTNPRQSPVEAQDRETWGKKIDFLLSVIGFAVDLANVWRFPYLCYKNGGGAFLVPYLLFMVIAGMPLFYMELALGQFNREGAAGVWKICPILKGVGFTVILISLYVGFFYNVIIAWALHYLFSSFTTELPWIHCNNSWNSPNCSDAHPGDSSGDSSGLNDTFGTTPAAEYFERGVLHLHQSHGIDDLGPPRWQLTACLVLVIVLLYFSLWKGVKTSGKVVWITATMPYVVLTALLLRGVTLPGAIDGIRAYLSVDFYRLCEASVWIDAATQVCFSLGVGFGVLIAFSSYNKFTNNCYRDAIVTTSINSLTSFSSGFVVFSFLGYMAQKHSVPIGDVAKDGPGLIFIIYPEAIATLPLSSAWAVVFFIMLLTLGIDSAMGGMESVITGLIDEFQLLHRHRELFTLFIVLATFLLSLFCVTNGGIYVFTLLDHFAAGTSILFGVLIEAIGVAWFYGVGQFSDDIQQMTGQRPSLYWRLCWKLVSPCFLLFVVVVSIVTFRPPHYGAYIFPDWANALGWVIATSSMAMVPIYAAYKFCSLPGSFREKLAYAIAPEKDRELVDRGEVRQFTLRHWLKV

These compounds were tested against Sodium-dependent dopamine transporter (Homo sapiens) (UniProt Q01959) (assay: modulators of human DAT uptake with cocaine – cell-based, LLC-PK1 hDAT, [14C]-dopamine uptake, MLSMR, cocaine antagonist project, primary screen (AID 449768;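 note: scored against the spread of the other compound wells on the same plate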)). Conditions: LLC-PK1 hDAT cells, [14C]-dopamine uptake with cocaine IC80; at 10 µM; actives deviate in either direction.

SMILES	B-score
CC(C)N1C(=O)CC2(CCN(CCOC(=O)C(O)(c3ccccc3)c3ccccc3)CC2)C1=O	inactive: -0.529
O=C(OC1CN2CCC1CC2)C(CO)(c1ccccc1)c1ccccc1 (stereo not drawn)	inactive: -0.262
CN(C)c1cccc(C(=O)NCC2(N(C)C)CCCCC2)c1	inactive: -0.348
